Assay: Toxicity in C57BL/6 mouse assessed as conditioned place aversion at 30 mg/kg/day, ip measured for 30 mins post dose
Conditions: in vivo, 0.5 h

## CN(C(=O)Cc1ccc(Cl)c(Cl)c1)C1CCCCC1N1CCCC1.Cl (stereo unspecified)
  Activity: Toxic
